Test results from patent publication US4352807A, “Hexahydro-trans-pyridoindole neuroleptic agents” (Pfizer Inc., priority 1980, dated 1982).
Where two headings read alike, the source gives them in different places.

Sequences of proteins named here, by UniProt entry; tags and fusion partners are left off.
UniProt P61169, whole entry: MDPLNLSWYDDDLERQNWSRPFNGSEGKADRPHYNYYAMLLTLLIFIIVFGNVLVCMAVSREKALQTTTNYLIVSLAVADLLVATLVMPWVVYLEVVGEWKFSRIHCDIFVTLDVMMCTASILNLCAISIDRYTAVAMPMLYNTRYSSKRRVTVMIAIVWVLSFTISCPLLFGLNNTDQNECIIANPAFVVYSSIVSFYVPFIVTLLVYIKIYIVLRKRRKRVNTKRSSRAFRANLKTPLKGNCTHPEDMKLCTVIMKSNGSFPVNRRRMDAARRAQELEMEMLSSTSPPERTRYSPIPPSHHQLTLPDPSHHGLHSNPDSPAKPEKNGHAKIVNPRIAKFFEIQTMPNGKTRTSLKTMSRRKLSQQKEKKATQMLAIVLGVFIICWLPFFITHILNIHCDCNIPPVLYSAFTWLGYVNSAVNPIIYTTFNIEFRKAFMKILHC

Target: T1, dopamine receptors (Rattus norvegicus, UniProt P61169)
T1 construct: brains were immediately dissected on an ice-cold glass plate to remove corpus striatum; from tissue; host or cells: rat corpus striatum, washed homogenate (Sprague-Dawley CD males)
Assay: Inhibition of ^3 H-spiroperidol binding to dopamine receptors (rat corpus striatum homogenate)
Parameters: species or system rat (Sprague-Dawley CD)
Experimental: The procedure was as follows:
Rats (Sprague-Dawley CD males, 250-300 g., Charles River Laboratories, Wilmington, Mass.) were decapitated, and brains were immediately dissected on an ice-cold glass plate to remove corpus striatum (~100 mg./brain). Tissue was homogenized in 40 volumes (1 g.+40 ml). of ice-cold 50 mM. […] The tissue suspension was placed in a 37° C. water bath for 5 minutes to insure inactivation of tissue monoamine oxidase and then kept on ice until used. The incubation mixture consisted of 0.02 ml. inhibitor solution (the desired concentration of the derivative to be tested in stock solution). […] Tubes were incubated in sequence for 10 minutes at 37° C. in groups of three, after which 0.9 ml. of each incubation tube was filtered through Whatman FG/B filters using a high vacuum pump. Each filter was placed in a scintillation vial, 10 ml. of liquid scintillation fluor was added and each vial was vigorously vortexed for about five seconds. Samples were allowed to stand over night, until filters were translucent, vortexed again and then counted 1.0 minute for radioactivity. Binding was calculated as femtomales (10^-15 moles) of ^3 H-spiroperidol bound per mg. protein. […]

Row | SMILES | IC50 [nM] | IC50 (read-out: IC50, inhibition of ^3 H-spiroperidol binding to dopamine receptors, rat corpus striatum, 0.5 nM ^3 H-spiroperidol, 10 min at 37° C.) [nM]
1 | O=C(NCCCCN1CC[C@H]2[C@H](C1)c1cc(F)ccc1N2c1ccc(F)cc1)c1ccccc1 (relative stereo) [Example 13, (±) 2-(N--benzoyl-1'-amino-n-but-4'-yl)] | 19 | 
2 | Cc1ccc(S(=O)(=O)NCCCCN2CC[C@H]3[C@H](C2)c2cc(F)ccc2N3c2ccc(F)cc2)cc1 (relative stereo) [Example 16, (±) 2-(N--p-toluenesulfonyl-1'-amino-n-but-4'-yl)] |  | 27
